Measured values published in ChEMBL document CHEMBL4808169, “Discovery of Potent and Fast-Acting Antimalarial Bis-1,2,4-triazines” (J Med Chem, 2021).

Legend:
Assay type in all cases: functional
Plasmodium falciparum [1] = assay: Selectivity ratio of IC50 for Plasmodium falciparum K1 to IC50 for Plasmodium falciparum NF54
Plasmodium falciparum [2] = assay: Selectivity ratio of IC50 for Plasmodium falciparum 7G8 to IC50 for Plasmodium falciparum NF54
Plasmodium falciparum [3] = assay: Selectivity ratio of IC50 for Plasmodium falciparum TM90C2B to IC50 for Plasmodium falciparum NF54
Plasmodium falciparum [4] = assay: Selectivity ratio of IC50 for Plasmodium falciparum RF12 to IC50 for Plasmodium falciparum NF54
Plasmodium falciparum [5] = assay: Selectivity ratio of IC50 for Plasmodium falciparum MRA1240 to IC50 for Plasmodium falciparum NF54
Plasmodium falciparum [6] = assay: Selectivity ratio of IC50 for Plasmodium falciparum Dd2 (DDD107498) to IC50 for Plasmodium falciparum NF54
Plasmodium falciparum [7] = assay: Selectivity ratio of IC50 for Plasmodium falciparum Dd2 to IC50 for Plasmodium falciparum NF54
Plasmodium falciparum [8] = assay: Selectivity ratio of IC50 for Plasmodium falciparum Dd2 (MMV048) to IC50 for Plasmodium falciparum NF54
Plasmodium falciparum [9] = assay: Selectivity ratio of IC50 for Plasmodium falciparum Dd2 (DSM265) to IC50 for Plasmodium falciparum NF54
Plasmodium falciparum [10] = assay: Selectivity ratio of IC50 for Plasmodium falciparum Dd2 (GNF156) to IC50 for Plasmodium falciparum NF54
Plasmodium falciparum [11] = assay: Selectivity ratio of IC50 for Plasmodium falciparum Dd2 (ELQ300) to IC50 for Plasmodium falciparum NF54

Measured: Ratio IC50

CCCOc1nncc(-c2cnnc(OCCN(C)C)n2)n1
1.1: Plasmodium falciparum [1] | Plasmodium falciparum [2] | Plasmodium falciparum [3] | Plasmodium falciparum [4] | Plasmodium falciparum [5] | Plasmodium falciparum [6] | Plasmodium falciparum [7] | Plasmodium falciparum [8] | Plasmodium falciparum [9] | Plasmodium falciparum [10] | Plasmodium falciparum [11]
